Measurements published in patent US12329765B2, “Targeted nanoparticle for the treatment of traumatic brain injury and other CNS diseases” (priority 2021, dated 2025).

System: liver, kidneys, lungs, and spleen
Conditions: versus untreated control/blast groups

For `CN(C)c1ccc(O)c2c1C[C@H]1C[C@H]3[C@H](N(C)C)C(O)=C(C(N)=O)C(=O)[C@@]3(O)C(O)=C1C2=O` [minocycline, Minocycline], the “histopathology of liver, kidneys, lungs and spleen (H&E)” value was “no abnormal histopathological findings; also recorded: no abnormal histopathological changes or lesions”.

“Also recorded” adds a separate entry of the source.
